pEC50: −log10 of the molar value.

Amino acid sequences for entries named in this document (tags omitted).
UniProt P21453, whole entry: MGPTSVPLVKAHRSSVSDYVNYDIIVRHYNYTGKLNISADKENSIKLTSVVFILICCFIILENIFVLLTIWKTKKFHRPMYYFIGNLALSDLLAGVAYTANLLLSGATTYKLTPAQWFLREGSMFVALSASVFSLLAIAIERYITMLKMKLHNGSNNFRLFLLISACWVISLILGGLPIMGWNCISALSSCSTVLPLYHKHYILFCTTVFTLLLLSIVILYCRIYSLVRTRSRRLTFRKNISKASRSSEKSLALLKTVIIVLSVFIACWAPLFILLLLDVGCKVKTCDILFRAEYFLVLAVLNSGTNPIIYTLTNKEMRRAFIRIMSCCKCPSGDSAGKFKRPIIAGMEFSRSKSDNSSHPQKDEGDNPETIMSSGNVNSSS

The pEC50 is the negative decadic logarithm of the EC50, by convention in mol/L.

This assay has as its target Sphingosine 1-phosphate receptor 1 (Homo sapiens, UniProt P21453). The assay is described as follows: Agonist activity at S1P1 receptor expressed in CHO cells after 60 mins by [35S]-GTPgammaS binding assay. The format is functional, cell-based.

`CCCN(CCC)c1cc(C(=O)Nc2ccc3[nH]ncc3c2)ncn1` had a negative logarithm of the EC50 (pEC50) of 8.15.
Next, `O=C(Nc1ccc(CCO)cc1)c1cc(NC2CCCCC2)ncn1`: below 4.70.

Source of the values: ChEMBL document CHEMBL1154985, “Discovery of a novel series of potent S1P1 agonists” (Bioorg Med Chem Lett, 2010).
